According to patent US20230157952A1, “METHOD FOR IMPROVING THE STABILITY OF A PHARMACEUTICAL COMPOSITION COMPRISING A HIGH PENETRATION DRUG, AND THE PHARMACEUTICAL COMPOSITION OBTAINED THEREFROM” (Techfields Inc., priority 2020, published 2023):
Blank lines part the entries; values can stand above or below the compound they belong to.

Tests used:
[1] = Stability of the pure HPDs (dry solid) at 25° C./RH 60%; assay type: physicochemical; conditions: pure HPD, 25° C./RH 60%
[2] = Effect of concentration on the stability of the solution (purity over time); conditions: in water at 25° C.
[3] = Effect of pH value on the stability of the solution (purity); assay type: physicochemical; conditions: 25° C.
[4] = day 0, pH 1.0, 7% solution in water
[5] = day 0, pH 2.0, 7% solution in water
[6] = day 0, pH 3.0, 7% solution in water
[7] = day 0, pH 3.7, 7% solution in water
[8] = day 0, pH 4.0, 7% solution in water
[9] = day 0, pH 4.3, 7% solution in water
[10] = day 0, pH 4.6, 7% solution in water
[11] = day 0, pH 5.0, 7% solution in water
[12] = day 0, pH 6.0, 7% solution in water
[13] = day 0, pH 7.0, 7% solution in water
[14] = day 0, pH 8.0, 7% solution in water
[15] = day 28, pH 4.0, 7% solution in water
[16] = day 28, pH 4.3, 7% solution in water
[17] = day 28, pH 4.6, 7% solution in water
[18] = day 0, pH 1.0, 7% in 25% ethanol
[19] = day 0, pH 2.0, 7% in 25% ethanol
[20] = day 0, pH 3.0, 7% in 25% ethanol
[21] = day 0, pH 3.7, 7% in 25% ethanol
[22] = day 0, pH 4.0, 7% in 25% ethanol
[23] = day 0, pH 4.3, 7% in 25% ethanol
[24] = day 0, pH 4.6, 7% in 25% ethanol
[25] = day 0, pH 5.0, 7% in 25% ethanol
[26] = day 0, pH 6.0, 7% in 25% ethanol
[27] = day 0, pH 7.0, 7% in 25% ethanol
[28] = day 0, pH 8.0, 7% in 25% ethanol

Structure (SMILES): CCN(CC)CCOC(=O)[C@H](C)c1ccc2cc(OC)ccc2c1.O=C(O)CC(O)(CC(=O)O)C(=O)O (racemic) [C-3, 2-(diethylamino)ethyl (R,S)-2-(6-methoxy-2-naphthyl) propionate•citric acid salt]
Purity ([1]; 3 month): 98.3 ± 0.1
Purity ([1]; 6 month): 98.2 ± 0.3
Purity ([1]; 9 month): 98.4 ± 0.3
Purity ([1]; Day 0): 98.4 ± 0.2
Purity(%) from day 0-28 [3, 4]: 98.0 ± 0.3%
Purity(%) from day 0-28 [3, 5]: 98.2 ± 0.4%
Purity(%) from day 0-28 [3, 6]: 98.2 ± 0.2%
Purity(%) from day 0-28 [3, 7]: 98.3 ± 0.4%
Purity(%) from day 0-28 [3, 8]: 98.4 ± 0.3%
Purity(%) from day 0-28 [3, 9]: 98.3 ± 0.4%
Purity(%) from day 0-28 [3, 10]: 98.3 ± 0.2%
Purity(%) from day 0-28 [3, 11]: 98.1 ± 0.3%
Purity(%) from day 0-28 [3, 12]: 98.1 ± 0.3%
Purity(%) from day 0-28 [3, 13]: 98.0 ± 0.3%
Purity(%) from day 0-28 [3, 14]: 98.0 ± 0.2%

Structure (SMILES): CCN(CC)CCOC(=O)C(C)c1ccc(CC(C)C)cc1.Cl (racemic) [C-4, 2-(diethylamino)ethyl (R,S)-2-(p-isobutylphenyl)propionate•HCl salt]
Purity ([1]; 3 month): 98.4 ± 0.2
Purity ([1]; 6 month): 98.2 ± 0.3
Purity ([1]; 9 month): 98.2 ± 0.1
Purity ([1]; Day 0): 98.3 ± 0.1
Purity(%) from day 0-28 [3, 18]: 98.2 ± 0.3%
Purity(%) from day 0-28 [3, 19]: 98.3 ± 0.3%
Purity(%) from day 0-28 [3, 20]: 98.5 ± 0.2%
Purity(%) from day 0-28 [3, 21]: 98.6 ± 0.3%
Purity(%) from day 0-28 [3, 22]: 98.6 ± 0.2%
Purity(%) from day 0-28 [3, 23]: 98.7 ± 0.3%
Purity(%) from day 0-28 [3, 24]: 98.6 ± 0.2%
Purity(%) from day 0-28 [3, 25]: 98.5 ± 0.3%
Purity(%) from day 0-28 [3, 26]: 98.4 ± 0.3%
Purity(%) from day 0-28 [3, 27]: 98.2 ± 0.3%
Purity(%) from day 0-28 [3, 28]: 98.0 ± 0.4%
Purity(%) from day 0-28 ([3]; day 28, pH 4.0, 7% in 25% ethanol): 97.8 ± 0.3%
Purity(%) from day 0-28 ([3]; day 28, pH 4.3, 7% in 25% ethanol): 97.7 ± 0.2%

Structure (SMILES): CCCCN(CCCC)CCOC(=O)C(C)c1ccc(CC(C)C)cc1.Cl (racemic) [C-6, 2-(dibutylamino)ethyl (R,S)-2-(p-isobutylphenyl)propionate•HCl salt]
Purity ([1]; 3 month): 98.5 ± 0.3
Purity ([1]; 6 month): 98.4 ± 0.4
Purity ([1]; 9 month): 98.4 ± 0.1
Purity ([1]; 12 month): 98.3 ± 0.2
Purity ([1]; 18 month): 98.3 ± 0.3
Purity ([1]; Day 0): 98.5 ± 0.1
Purity(%) from day 0-28 [3, 18]: 97.9 ± 0.3%
Purity(%) from day 0-28 [3, 19]: 98.0 ± 0.3%
Purity(%) from day 0-28 [3, 20]: 98.2 ± 0.4%
Purity(%) from day 0-28 [3, 21]: 98.3 ± 0.3%
Purity(%) from day 0-28 [3, 22]: 98.4 ± 0.3%
Purity(%) from day 0-28 [3, 23]: 98.4 ± 0.3%
Purity(%) from day 0-28 [3, 24]: 98.3 ± 0.3%
Purity(%) from day 0-28 [3, 25]: 98.3 ± 0.3%
Purity(%) from day 0-28 [3, 26]: 98.2 ± 0.4%
Purity(%) from day 0-28 [3, 27]: 98.0 ± 0.3%
Purity(%) from day 0-28 [3, 28]: 97.8 ± 0.4%

Second part, the compound after the results:

Purity ([1]; 12 month, listed as A-1-1): 98.5 ± 0.2
Purity ([1]; 18 month, listed as A-1-1): 98.3 ± 0.2
Purity ([1]; 24 month, listed as A-1-1): 98.2 ± 0.2
Purity at hr 0 ([2]; 0.01 wt %): 98.3%
Purity at Day 3 ([2]; 0.1 wt %): 97.9%
Purity at hr 0 ([2]; 0.1 wt %): 98.6%
Purity at hr 24 ([2]; 0.1 wt %): 98.4%
Purity at Day 3 ([2]; 1 wt %): 98.2%
Purity at Day 7 ([2]; 1 wt %): 97.8%
Purity at hr 0 ([2]; 1 wt %): 98.6%
Purity at hr 24 ([2]; 1 wt %): 98.7%
Purity at Day 3 ([2]; 3 wt %): 98.5%
Purity at Day 7 ([2]; 3 wt %): 98.3%
Purity at Day 14 ([2]; 3 wt %): 97.9%
Purity at hr 0 ([2]; 3 wt %): 98.8%
Purity at hr 24 ([2]; 3 wt %): 98.7%
Purity at Day 3 ([2]; 5 wt %): 98.7%
Purity at Day 7 ([2]; 5 wt %): 98.5%
Purity at Day 14 ([2]; 5 wt %): 98.2%
Purity at Day 21 ([2]; 5 wt %): 97.7%
Purity at hr 0 ([2]; 5 wt %): 98.9%
Purity at hr 24 ([2]; 5 wt %): 98.8%
Purity at Day 3 ([2]; 8 wt %): 98.8%
Purity at Day 7 ([2]; 8 wt %): 98.6%
Purity at Day 14 ([2]; 8 wt %): 98.2%
Purity at hr 0 ([2]; 8 wt %): 98.9%
Purity at hr 24 ([2]; 8 wt %): 98.8%
Purity at Day 3 ([2]; 10 wt %): 98.8%
Purity at Day 7 ([2]; 10 wt %): 98.6%
Purity at Day 14 ([2]; 10 wt %): 98.3%
Purity at hr 0 ([2]; 10 wt %): 98.8%
Purity at hr 24 ([2]; 10 wt %): 98.8%
Purity at Day 3 ([2]; 15 wt %): 98.8%
Purity at Day 7 ([2]; 15 wt %): 98.7%
Purity at Day 14 ([2]; 15 wt %): 98.3%
Purity at hr 0 ([2]; 15 wt %): 98.8%
Purity at hr 24 ([2]; 15 wt %): 98.8%
Purity at Day 3 ([2]; 20 wt %): 98.8%
Purity at Day 7 ([2]; 20 wt %): 98.7%
Purity at Day 14 ([2]; 20 wt %): 98.3%
Purity at hr 0 ([2]; 20 wt %): 98.8%
Purity at hr 24 ([2]; 20 wt %): 98.8%
Purity(%) from day 0-28 [3, 4]: 98.5 ± 0.3%
Purity(%) from day 0-28 [3, 5]: 98.6 ± 0.2%
Purity(%) from day 0-28 [3, 6]: 98.6 ± 0.2%
Purity(%) from day 0-28 [3, 7]: 98.8 ± 0.3%
Purity(%) from day 0-28 [3, 8]: 98.8 ± 0.2%
Purity(%) from day 0-28 [3, 9]: 98.8 ± 0.3%
Purity(%) from day 0-28 [3, 10]: 98.8 ± 0.2%
Purity(%) from day 0-28 [3, 11]: 98.7 ± 0.3%
Purity(%) from day 0-28 [3, 12]: 98.6 ± 0.2%
Purity(%) from day 0-28 [3, 13]: 98.5 ± 0.3%
Purity(%) from day 0-28 [3, 14]: 98.3 ± 0.3%
Purity(%) from day 0-28 [3, 15]: 97.8 ± 0.2%
Purity(%) from day 0-28 [3, 16]: 97.9 ± 0.2%
Purity(%) from day 0-28 [3, 17]: 97.9 ± 0.1%
Structure (SMILES): CCN(CC)CCOC(=O)[C@H](C)c1ccc2cc(OC)ccc2c1.Cl (racemic) [2-(diethylamino)ethyl (R,S)-2-(6-methoxy-2-naphthyl)propionate•HCl]

Purity ([1]; 3 month): 98.4 ± 0.2
Purity ([1]; 6 month): 98.4 ± 0.1
Purity ([1]; 12 month): 98.2 ± 0.3
Purity ([1]; 12 month, listed as A-1-4): 98.4 ± 0.2
Purity ([1]; 18 month, listed as A-1-4): 98.2 ± 0.1
Purity ([1]; Day 0): 98.5 ± 0.1
Purity(%) from day 0-28 [3, 4]: 98.3 ± 0.3%
Purity(%) from day 0-28 [3, 5]: 98.5 ± 0.3%
Purity(%) from day 0-28 [3, 6]: 98.6 ± 0.4%
Purity(%) from day 0-28 [3, 7]: 98.6 ± 0.3%
Purity(%) from day 0-28 [3, 8]: 98.7 ± 0.4%
Purity(%) from day 0-28 [3, 9]: 98.8 ± 0.2%
Purity(%) from day 0-28 [3, 10]: 98.7 ± 0.3%
Purity(%) from day 0-28 [3, 11]: 98.7 ± 0.2%
Purity(%) from day 0-28 [3, 12]: 98.7 ± 0.3%
Purity(%) from day 0-28 [3, 13]: 98.6 ± 0.3%
Purity(%) from day 0-28 [3, 14]: 98.5 ± 0.3%
Purity(%) from day 0-28 [3, 15]: 97.7 ± 0.2%
Purity(%) from day 0-28 [3, 16]: 97.8 ± 0.2%
Purity(%) from day 0-28 [3, 17]: 97.8 ± 0.2%
Structure (SMILES): Br.CCN(CC)CCOC(=O)C(C)c1ccc2cc(OC)ccc2c1 (racemic) [C-2, 2-(diethylamino)ethyl (R,S)-2-(6-methoxy-2-naphthyl) propionate•HBr salt]

Purity ([1]; 9 month): 98.2 ± 0.1
Purity ([1]; Day 0): 98.2 ± 0.1
Purity(%) from day 0-28 [3, 18]: 98.0 ± 0.3%
Purity(%) from day 0-28 [3, 19]: 98.2 ± 0.4%
Purity(%) from day 0-28 [3, 20]: 98.3 ± 0.3%
Purity(%) from day 0-28 [3, 21]: 98.5 ± 0.4%
Purity(%) from day 0-28 [3, 22]: 98.5 ± 0.3%
Purity(%) from day 0-28 [3, 23]: 98.6 ± 0.3%
Purity(%) from day 0-28 [3, 24]: 98.5 ± 0.2%
Purity(%) from day 0-28 [3, 25]: 98.5 ± 0.3%
Purity(%) from day 0-28 [3, 26]: 98.4 ± 0.3%
Purity(%) from day 0-28 [3, 27]: 98.2 ± 0.3%
Purity(%) from day 0-28 [3, 28]: 98.0 ± 0.3%
Structure (SMILES): CC(C)Cc1ccc([C@@H](C)C(=O)OCCN(C)C)cc1.Cl (racemic) [C-5, 2-(dimethylamino)ethyl (R,S)-2-(p-isobutylphenyl)propionate•HCl salt]

Purity ([1]; 3 month): 98.2 ± 0.1
Purity ([1]; 6 month): 98.2 ± 0.2
Purity ([1]; 12 month): 98.2 ± 0.3
Purity ([1]; Day 0): 98.3 ± 0.2
Purity(%) from day 0-28 [3, 18]: 97.8 ± 0.4%
Purity(%) from day 0-28 [3, 19]: 98.1 ± 0.3%
Purity(%) from day 0-28 [3, 20]: 98.3 ± 0.3%
Purity(%) from day 0-28 [3, 21]: 98.5 ± 0.2%
Purity(%) from day 0-28 [3, 22]: 98.6 ± 0.3%
Purity(%) from day 0-28 [3, 23]: 98.5 ± 0.3%
Purity(%) from day 0-28 [3, 24]: 98.5 ± 0.2%
Purity(%) from day 0-28 [3, 25]: 98.4 ± 0.3%
Purity(%) from day 0-28 [3, 26]: 98.4 ± 0.4%
Purity(%) from day 0-28 [3, 27]: 98.2 ± 0.3%
Purity(%) from day 0-28 [3, 28]: 97.7 ± 0.3%
Structure (SMILES): CC(C)Cc1ccc([C@@H](C)C(=O)OC[C@@H]2CCCN2)cc1.Cl [C-7, 2-pyrrolidinemethyl (R,S)-2-(p-isobutylphenyl)propionate•HCl salt]
